EC50 data for seven molecules are collected here from patent US20160122307A1, “PERHYDROQUINOXALINE DERIVATIVES” (DR. AUGUST WOLFF GMBH & CO. KG ARZNEIMITTEL, priority 2013, published 2016).

By UniProt entry, the sequences of proteins in these tests, tags left out.
UniProt P41145, whole entry: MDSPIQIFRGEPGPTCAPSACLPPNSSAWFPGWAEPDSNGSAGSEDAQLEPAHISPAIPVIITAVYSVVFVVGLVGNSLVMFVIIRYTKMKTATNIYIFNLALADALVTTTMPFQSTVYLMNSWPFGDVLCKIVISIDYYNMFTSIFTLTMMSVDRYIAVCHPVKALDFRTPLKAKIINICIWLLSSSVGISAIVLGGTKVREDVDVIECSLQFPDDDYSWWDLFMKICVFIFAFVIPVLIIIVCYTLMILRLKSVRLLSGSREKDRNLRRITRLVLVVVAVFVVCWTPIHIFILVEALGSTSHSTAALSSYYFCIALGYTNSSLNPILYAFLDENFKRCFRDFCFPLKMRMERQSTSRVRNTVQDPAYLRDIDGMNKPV

The assay deals with Human opiate κ receptors (Homo sapiens, UniProt P41145). Description: κ opioid receptor functional assay, [35S]GTPγS binding (assay C). To be noted: read-out: GTPγS EC50, κ opioid functional activity, human recombinant κ receptors in HEK-293 membranes, EC50 grouped in three classes. The class given is biochemical. On the technique in general: GTPγS is a poorly hydrolysed GTP analogue; its binding reports G protein activation.

Regarding `O=C(c1cccs1)N1CCN(C(=O)Cc2ccc(Cl)c(Cl)c2)C2C(N3CCCC3)CCCC21` (racemic), the half-maximal effective concentration (EC50) was less than 10 nM.
`COC(=O)c1ccc(C(=O)N2CCN(C(=O)Cc3ccc(Cl)c(Cl)c3)C3C(N4CCCC4)CCCC32)cc1` (racemic): the EC50 was 10 to 100 nM.
Under `O=C(c1ccccn1)N1CCN(C(=O)Cc2ccc(Cl)c(Cl)c2)C2C(N3CCCC3)CCCC21` (racemic) stands less than 10 nM.
Take `COC(=O)c1ccc(C(=O)N2CCN(C(=O)Cc3ccc(Cl)c(Cl)c3)C3C(N4CCCC4)CCCC32)nc1` (racemic): the EC50 was in the range of 10 to 100 nM.
Under `NC(=O)c1ccc(C(=O)N2CCN(C(=O)Cc3ccc(Cl)c(Cl)c3)C3C(N4CCCC4)CCCC32)cc1` (racemic) stands 10 to 100 nM; under `O=C(c1ccco1)N1CCN(C(=O)Cc2ccc(Cl)c(Cl)c2)C2C(N3CCCC3)CCCC21` (racemic), less than 10 nM; under `COC(=O)c1cccc(C(=O)N2CCN(C(=O)Cc3ccc(Cl)c(Cl)c3)C3C(N4CCCC4)CCCC32)c1` (racemic), 10 to 100 nM.

Broadly, the EC50 is the midpoint of the concentration-response curve.
